US20250289807A1, “Inhibitors of ROCK2” (Graviton Bioscience BV, priority 2022, published 2025)

Amino acid sequences for entries named in this document (tags omitted). A change or cut given only in a name is not applied to a line headed by its entry.
UniProt Q13464: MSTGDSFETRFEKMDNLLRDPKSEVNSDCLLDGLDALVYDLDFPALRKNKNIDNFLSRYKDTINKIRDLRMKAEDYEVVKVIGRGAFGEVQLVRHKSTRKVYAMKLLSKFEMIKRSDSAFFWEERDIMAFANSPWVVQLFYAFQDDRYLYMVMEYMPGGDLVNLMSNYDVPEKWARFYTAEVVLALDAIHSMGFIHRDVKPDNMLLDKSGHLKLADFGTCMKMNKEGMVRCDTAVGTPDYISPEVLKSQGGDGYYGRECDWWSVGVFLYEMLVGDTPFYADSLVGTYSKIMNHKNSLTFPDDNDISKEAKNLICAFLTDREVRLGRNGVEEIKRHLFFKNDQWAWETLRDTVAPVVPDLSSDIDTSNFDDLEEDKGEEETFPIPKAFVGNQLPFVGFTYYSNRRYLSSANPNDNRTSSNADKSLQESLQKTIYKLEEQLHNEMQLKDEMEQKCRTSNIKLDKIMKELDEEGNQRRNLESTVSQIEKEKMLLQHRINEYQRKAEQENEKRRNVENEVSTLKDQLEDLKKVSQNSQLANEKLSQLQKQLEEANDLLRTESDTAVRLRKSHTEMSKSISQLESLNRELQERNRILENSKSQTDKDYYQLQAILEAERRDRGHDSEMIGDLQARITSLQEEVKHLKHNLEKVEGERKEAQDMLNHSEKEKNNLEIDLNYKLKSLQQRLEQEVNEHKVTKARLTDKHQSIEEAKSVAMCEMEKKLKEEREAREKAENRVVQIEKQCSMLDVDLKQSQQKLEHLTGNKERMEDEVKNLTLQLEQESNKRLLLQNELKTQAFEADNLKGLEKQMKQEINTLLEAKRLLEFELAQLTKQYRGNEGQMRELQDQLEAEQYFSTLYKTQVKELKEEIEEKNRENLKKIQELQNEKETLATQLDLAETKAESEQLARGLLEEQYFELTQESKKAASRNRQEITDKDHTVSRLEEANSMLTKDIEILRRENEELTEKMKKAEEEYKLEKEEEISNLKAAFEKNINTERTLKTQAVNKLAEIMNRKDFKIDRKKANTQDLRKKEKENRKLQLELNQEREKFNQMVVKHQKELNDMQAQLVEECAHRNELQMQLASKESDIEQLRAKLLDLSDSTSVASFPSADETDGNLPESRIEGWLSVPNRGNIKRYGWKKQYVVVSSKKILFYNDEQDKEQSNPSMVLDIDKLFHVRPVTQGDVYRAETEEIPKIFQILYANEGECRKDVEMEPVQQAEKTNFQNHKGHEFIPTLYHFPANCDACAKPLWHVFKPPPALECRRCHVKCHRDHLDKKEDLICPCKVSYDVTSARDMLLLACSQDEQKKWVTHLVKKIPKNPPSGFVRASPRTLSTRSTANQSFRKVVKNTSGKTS

Biological target: ROCK1 (Homo sapiens (Human), UniProt Q13464)
Experiment: ADP-Glo kinase assay, ROCK1
Type: biochemical
Details: 10 μM ATP, 170 μM S6K substrate, 120 min
Procedure: ADP-Glo kinase assay (Promega). The ADP-Glo™ Kinase Assay is a luminescent ADP detection assay that allows measurement of kinase activity based on the amount of ADP produced during a kinase reaction. The kinase reaction is performed in the presence of ATP, S6K substrate ([…]) and the ROCK kinase in the appropriate Kinase Reaction Buffer (1×). Upon termination of the reaction, the unconsumed ATP is depleted by addition of ADP-Glo™ Reagent. Next, Kinase Detection Reagent is added to convert ADP to ATP and allow the newly synthesized ATP to be measured using a luciferase/luciferin reaction. The luminescence is proportional to the produced ADP and consequently to the kinase activity. The ADP-Glo™ Kinase Assay was performed in a 384 well plate format as follows.
Kinase Detection Reagent Preparation: The Kinase Detection Buffer was thawed at room temperature (RT). If a precipitate was present, the buffer was incubated at 37° C. with constant swirling for 15 minutes to dissolve the precipitate or the precipitate was removed from the buffer by carefully pipetting the supernatant from the bottle. After equilibrating both the Kinase Detection Buffer and Kinase Detection Substrate to room temperature, the entire volume of Kinase Detection Buffer was transferred into the bottle containing Kinase Detection Substrate to reconstitute the lyophilized substrate, followed by gentile mixing to obtain a homogeneous solution.
Kinase Reaction Buffer Preparation: Kinase reaction buffer was prepared freshly before each experiment.
ADP-Glo Reagents Preparation. Three mixes were prepared on ice before running the assay: • Mix 1—containing ROCK1 or ROCK2 in Kinase Reaction Buffer (1×) • Mix 2—containing S6K peptide in Kinase Reaction Buffer (1×) • Mix 3—containing ATP in Kinase Reaction Buffer (1×)
The ratios of reagent volumes in the assay were 1:1:2 of kinase reaction to ADP-Glo™ Reagent to Kinase Detection Reagent. For 384-well plates, volumes were: 5 μl of kinase reaction, 5 μl of ADP-Glo™ Reagent and 10 μl of Kinase Detection Reagent.
Generating a standard curve for conversion of ATP to ADP. To estimate the amount of ADP produced in the kinase reaction, a standard curve that represents the luminescence corresponding to the conversion of ATP to ADP was prepared based on the ATP concentration used in the kinase reaction. These conversion curves represent the amounts of ATP and ADP available in a reaction at the specified conversion percentage ranging from 100% conversion to 0% conversion. The standard samples used to generate an ATP-to-ADP conversion curve are created by combining the appropriate volumes of ATP and ADP stock solutions.
Each plate contained a positive control (1 μM Comp. A for ROCK2 and 1 μM RKI-1447 for ROCK1); a vehicle control (1% DMSO); a blank control (kinase reaction buffer (1×)); a low control (substrate and ATP, without kinase); and an autophosphorylation control (kinase and ATP, without substrate). Test and reference compounds were diluted in 100% DMSO to obtain 10 mM stock solutions. Each compound was tested in 8-serial dilutions in duplicate. The final concentration of DMSO in the reaction was 1% (up to 50 nL).
5 μl/well Kinase Reaction Buffer (1×) was dispensed to blank control wells. 2 μl/well Kinase Reaction Buffer (1×) was dispensed to control without protein (low control) and without substrate (autophosphorylation) wells. The plate was sealed with adhesive film followed by a short spin (1 min, 1000 rpm).
2 μl/well kinase (2.5×) solution was dispensed into relevant wells of the assay plate. The plate was sealed with adhesive film followed by a short spin (1 min, 1000 rpm).
The plate was sealed with adhesive film followed by a short spin (1 min, 1000 rpm).
1 μl/well ATP (5×) solution was dispensed into relevant wells of the assay plate. The final volume of reaction was […]. The plate was sealed with adhesive film followed by a short spin (1 min, 1000 rpm). […]

How did the IC50 turn out when `O=C(c1cc2ccc(-c3nccc(Nc4ccc(-c5ccn[nH]5)cc4)n3)cc2o1)N1CC(F)(F)C1` [Example 14] was run?
Its IC50 is 4.71 µM.

How did the IC50 turn out when `O=C(c1nc2ccc(-c3nccc(Nc4ccc(-c5ccn[nH]5)cc4)n3)cc2[nH]1)N1CC(F)(F)C1` [Example 21] was run?
Its IC50 is 7.78 µM.

With `O=C(c1cc2ccc(-c3nccc(Nc4ccc(-c5ccn[nH]5)cc4)n3)cc2n1CC1COC1)N1CC(F)(F)C1` [Example 6] as the compound, how does the IC50 read?
The IC50 was 1.99 µM.

`CN(C)CCn1c(C(=O)N2CC(F)(F)C2)cc2ccc(-c3nccc(Nc4ccc(-c5ccn[nH]5)cc4)n3)cc21` [Example 5] was tested. Which IC50 did it give?
The IC50 was > 50 µM.

`O=C(c1cc2ccc(-c3nccc(Nc4ccc(-c5cnc[nH]5)cc4)n3)cc2n1CC1COC1)N1CCC(F)(F)C1` [Example 11] was tested. Which IC50 did it give?
The IC50 was 3.68 µM.

For `Cn1c(C(=O)N2CCC(F)(F)C2)cc2ccc(-c3nccc(Nc4ccc(-c5cn[nH]n5)cc4)n3)cc21` [Example 17], which IC50 is on record?
The IC50 was 0.437 µM.

How did the IC50 turn out when `O=C(c1cc2ccc(-c3nccc(Nc4ccc(-c5ccn[nH]5)cc4)n3)cc2s1)N1CC(F)(F)C1` [Example 20] was run?
Its IC50 is 23.3 µM.
